Legend:
[1] = target: T1, full-length B-Catenin (Uniprot ID P35222) (Homo sapiens, UniProt P35222); assay: biochemical; type: binding; conditions: beta-Catenin FP IC50 (nM), competition fluorescence polarization
T1 construct: 10 nM full-length B-Catenin (Uniprot ID P35222)

Protein sequences, listed by entry. Tags and fused reporters are not part of them.
UniProt P35222, whole entry: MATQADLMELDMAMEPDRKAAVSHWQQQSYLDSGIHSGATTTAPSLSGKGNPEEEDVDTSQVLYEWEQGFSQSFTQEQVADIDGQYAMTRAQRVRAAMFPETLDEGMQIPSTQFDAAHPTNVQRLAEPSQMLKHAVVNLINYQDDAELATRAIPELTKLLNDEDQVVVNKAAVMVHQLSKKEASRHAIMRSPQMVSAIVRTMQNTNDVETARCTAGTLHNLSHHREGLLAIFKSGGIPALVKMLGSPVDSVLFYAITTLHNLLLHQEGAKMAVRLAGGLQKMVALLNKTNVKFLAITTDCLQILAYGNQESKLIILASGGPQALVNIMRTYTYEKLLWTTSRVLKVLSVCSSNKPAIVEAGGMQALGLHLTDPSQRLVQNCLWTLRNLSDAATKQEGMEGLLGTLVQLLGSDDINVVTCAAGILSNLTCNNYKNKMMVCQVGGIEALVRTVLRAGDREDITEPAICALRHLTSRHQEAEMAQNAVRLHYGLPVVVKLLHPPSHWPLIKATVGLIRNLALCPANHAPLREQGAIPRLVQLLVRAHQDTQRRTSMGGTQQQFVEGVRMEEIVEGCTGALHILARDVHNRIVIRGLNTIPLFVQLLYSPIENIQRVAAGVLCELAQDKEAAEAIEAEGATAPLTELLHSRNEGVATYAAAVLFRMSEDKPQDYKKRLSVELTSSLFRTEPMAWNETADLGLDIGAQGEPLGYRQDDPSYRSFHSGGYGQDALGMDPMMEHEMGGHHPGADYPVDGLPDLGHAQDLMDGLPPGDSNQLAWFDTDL

[2] = target: beta-catenin/TCF4 interaction (Homo sapiens, UniProt P35222); assay: cell-based; set-up: host or cells: HEK293; conditions: NanoBRET Abs IC50 (uM)

Row | Compound | IC50 [1] | IC50 ([2]; absolute IC50) | IC50 [2]
1 | CC(=O)N1CCC[C@]12CC=CCCCC1(CCCC=CCCCOC(=O)N3CC[C@@]4(C3)NC(=O)[C@H](CCCCNC(=O)CC[C@@H](C(=O)N[C@@H](C)C(N)=O)NC(=O)[C@H](Cc3csc5ccccc35)NC(=O)[C@H](Cc3ccsc3)NC4=O)NC(=O)[C@H](Cc3ccccc3)NC(=O)[C@H](C)NC(=O)C(C)(C)NC(=O)[C@H](Cc3cccc(C(=O)O)c3)NC(=O)[C@H](CC(=O)O)NC1=O)NC(=O)[C@H](CCCN1CCC(F)(F)CC1)NC(=O)[C@H](CC(=O)O)NC2=O (relative stereo) [I-314, Ac-PL3-Asp-F2PipNva-B5-Asp-3COOHF-Aib-Ala-Phe-Lys*3-PyrS2-3Thi-BztA-GlnR*3-Ala-NH2] | < 50 nM | 3 to 10 µM | 
2 | CC(=O)N1CCC[C@]12CC=CCCCC1(CCCC=CCCCOC(=O)N3CC[C@@]4(C3)NC(=O)[C@H](CCCCNC(=O)CC[C@@H](C(=O)N[C@@H](CC(C)C)C(=O)N[C@@H](CO)C(N)=O)NC(=O)[C@H](Cc3csc5ccccc35)NC(=O)[C@H](Cc3ccccc3C(F)(F)F)NC4=O)NC(=O)[C@H](Cc3ccccc3)NC(=O)[C@H](C)NC(=O)C(C)(C)NC(=O)[C@H](Cc3cccc(C(=O)O)c3)NC(=O)[C@H](CC(=O)O)NC1=O)NC(=O)[C@H](CC(C)(C)C)NC(=O)[C@H](CC(N)=O)NC2=O (relative stereo) [I-144, Ac-PL3-Asn-Npg-B5-Asp-3COOHF-Aib-Ala-Phe-Lys*3-PyrS2-2F3MeF-BztA-GlnR*3-Leu-Ser-NH2] | < 50 nM |  | 3 to 10 µM
3 | CC(=O)N1CCC[C@]12CC=CCCCC1(CCCC=CCCCOC(=O)N3CC[C@@]4(C3)NC(=O)[C@H](CCC(=O)N3CCC(CC3)C[C@@H](C(=O)N[C@@H](C)C(N)=O)NC(=O)[C@H](Cc3csc5ccccc35)NC(=O)[C@H](Cc3ccsc3)NC4=O)NC(=O)[C@H](Cc3ccccc3)NC(=O)[C@H](C)NC(=O)[C@H](C)NC(=O)[C@H](Cc3cccc(C(=O)O)c3)NC(=O)[C@H](CC(=O)O)NC1=O)NC(=O)[C@H](CC(C)(C)C)NC(=O)[C@H](CC(=O)O)NC2=O (relative stereo) [I-258, Ac-PL3-Asp-Npg-B5-Asp-3COOHF-Ala-Ala-Phe-GlnR*3-PyrS2-3Thi-BztA-4PipA*3-Ala-NH2] | < 50 nM |  | 3 to 10 µM
4 | CC(=O)N1CCC[C@]12CC=CCCCC1(CCCC=CCCCOC(=O)N3CC[C@@]4(C3)NC(=O)[C@H](CCCCNC(=O)CC[C@@H](C(=O)N[C@@H](C)C(N)=O)NC(=O)[C@H](Cc3csc5ccccc35)NC(=O)[C@H](Cc3ccccc3C(F)(F)F)NC4=O)NC(=O)[C@H](Cc3ccccc3)NC(=O)[C@H](C)NC(=O)C(C)(C)NC(=O)[C@H](Cc3ccccc3)NC(=O)[C@H](CC(=O)O)NC1=O)NC(=O)[C@H](CC(C)(C)C)NC(=O)[C@H](CC(=O)O)NC2=O (relative stereo) [I-220, Ac-PL3-Asp-Npg-B5-Asp-Phe-Aib-Ala-Phe-Lys*3-PyrS2-2F3MeF-BztA-GlnR*3-Ala-NH2] | 200 to 750 nM |  | > 10 µM
5 | CC(=O)N1CCC[C@]12CC=CCCCC1(CCCC=CCCCOC(=O)N3CC[C@@]4(C3)NC(=O)[C@H](CCCCNC(=O)CC[C@@H](C(=O)N[C@@H](C)C(N)=O)NC(=O)[C@H](Cc3csc5ccccc35)NC(=O)[C@H](Cc3ccsc3)NC4=O)NC(=O)[C@H](Cc3ccccc3)NC(=O)[C@H](C)NC(=O)[C@H](CCC(N)=O)NC(=O)[C@H](Cc3cccc(C(=O)O)c3)NC(=O)[C@H](CC(=O)O)NC1=O)NC(=O)[C@H](CC(C)(C)C)NC(=O)[C@H](CC(N)=O)NC2=O (relative stereo) [I-88, Ac-PL3-Asn-Npg-B5-Asp-3COOHF-Gln-Ala-Phe-Lys*3-PyrS2-3Thi-BztA-GlnR*3-Ala-NH2] | < 50 nM |  | > 10 µM
6 | CC(=O)N1CCC[C@]12CC=CCCCC1(CCCC=CCCCOC(=O)N3CC[C@@]4(C3)NC(=O)[C@H](CCCCNC(=O)CC[C@@H](C(=O)N[C@@H](C)C(=O)N[C@@H](CO)C(=O)N[C@@H](CC(C)C)C(N)=O)NC(=O)[C@H](Cc3csc5ccccc35)NC(=O)[C@H](Cc3ccsc3)NC4=O)NC(=O)[C@H](Cc3ccccc3)NC(=O)[C@H](C)NC(=O)C(C)(C)NC(=O)[C@H](Cc3cccc(C(=O)O)c3)NC(=O)[C@H](CC(=O)O)NC1=O)NC(=O)[C@H](CC(C)(C)C)NC(=O)[C@H](CC(=O)O)NC2=O (relative stereo) [I-464, Ac-PL3-Asp-Npg-B5-Asp-3COOHF-Aib-Ala-Phe-Lys*3-PyrS2-3Thi-BztA-GlnR*3-Ala-Ser-Leu-NH2] | < 50 nM | 1.5 to 3 µM | 
7 | CC(=O)N1CCC[C@]12CC=CCCCC1(CCCC=CCCCOC(=O)N3CC[C@@]4(C3)NC(=O)[C@H](CCCCNC(=O)CC[C@@H](C(=O)N[C@@H](C)C(N)=O)NC(=O)[C@H](Cc3csc5ccccc35)NC(=O)[C@H](Cc3ccsc3)NC4=O)NC(=O)[C@H](Cc3ccccc3)NC(=O)[C@H](C)NC(=O)[C@H](C)NC(=O)[C@H](Cc3cccc(C(=O)O)c3)NC(=O)[C@H](CC(=O)O)NC1=O)NC(=O)[C@H](CC(C)(C)C)NC(=O)[C@H](CCO)NC2=O (relative stereo) [I-81, Ac-PL3-Hse-Npg-B5-Asp-3COOHF-Ala-Ala-Phe-Lys*3-PyrS2-3Thi-BztA-GlnR*3-Ala-NH2] | 50 to 200 nM |  | 3 to 10 µM
8 | CC(=O)N1CCC[C@]12CC=CCCCC1(CCCC=CCCCOC(=O)N3CC[C@@]4(C3)NC(=O)[C@H](CCCCNC(=O)CC[C@@H](C(=O)N[C@@H](C)C(N)=O)NC(=O)[C@H](Cc3csc5ccccc35)NC(=O)[C@H](Cc3ccccc3C(F)(F)F)NC4=O)NC(=O)[C@H](Cc3ccccc3)NC(=O)[C@H](C)NC(=O)C(C)(C)NC(=O)[C@H](C)NC(=O)[C@H](CC(=O)O)NC1=O)NC(=O)[C@H](CC(C)(C)C)NC(=O)[C@H](CC(=O)O)NC2=O (relative stereo) [I-213, Ac-PL3-Asp-Npg-B5-Asp-Ala-Aib-Ala-Phe-Lys*3-PyrS2-2F3MeF-BztA-GlnR*3-Ala-NH2] | 50 to 200 nM |  | 3 to 10 µM

More lines, now with the values ahead:

Row | IC50 [1] | IC50 ([2]; absolute IC50) | IC50 [2] | Compound
9 | < 50 nM | 3 to 10 µM |  | CC(=O)N1CCC[C@]12CC=CCCCC1(CCCC=CCCCOC(=O)N3CC[C@@]4(C3)NC(=O)[C@H](CCCCNC(=O)CC[C@@H](C(=O)N[C@@H](C)C(N)=O)NC(=O)[C@H](Cc3ccc(Cl)c(Cl)c3)NC(=O)[C@H](CC3CCCC3)NC4=O)NC(=O)[C@H](Cc3ccccc3)NC(=O)[C@H](C)NC(=O)C(C)(C)NC(=O)[C@H](Cc3cccc(C(=O)O)c3)NC(=O)[C@H](CC(=O)O)NC1=O)NC(=O)[C@H](CC(C)(C)C)NC(=O)[C@H](CC(=O)O)NC2=O (single isomer, unassigned) [I-475, Ac-PL3-Asp-Npg-B5-Asp-3COOHF-Aib-Ala-Phe-Lys*3-PyrS2-CypA-34ClF-GlnR*3-Ala-NH2]
10 | < 50 nM | 3 to 10 µM |  | CCCC[C@@H]1NC(=O)[C@H](C)NC(=O)C(C)(C)NC(=O)[C@H](Cc2cccc(C(=O)O)c2)NC(=O)[C@H](CC(=O)O)NC(=O)C2(CCCC=CCCCOC(=O)N3CC[C@@]4(C3)NC(=O)[C@H](CCCCNC(=O)CC[C@@H](C(=O)N[C@@H](C)C(N)=O)NC(=O)[C@H](Cc3ccc(Cl)c(Cl)c3)NC(=O)[C@H](Cc3ccccc3)NC4=O)NC1=O)CCCC=CC[C@]1(CCCN1C(C)=O)C(=O)N[C@@H](CC(=O)O)C(=O)N[C@@H](CC(C)(C)C)C(=O)N2 (single isomer, unassigned) [I-479, Ac-PL3-Asp-Npg-B5-Asp-3COOHF-Aib-Ala-nLeu-Lys*3-PyrS2-Phe-34ClF-GlnR*3-Ala-NH2]
11 | < 50 nM |  | < 1.5 µM | CC(=O)N1CCC[C@]12CC=CCCCC1(CCCC=CCCCOC(=O)N3CC[C@@]4(C3)NC(=O)[C@H](CCCCNC(=O)CC[C@@H](C(=O)N[C@@H](C)C(N)=O)NC(=O)[C@H](Cc3csc5ccccc35)NC(=O)[C@H](Cc3ccsc3)NC4=O)NC(=O)[C@H](Cc3ccccc3)NC(=O)[C@H](C)NC(=O)C(C)(C)NC(=O)[C@H](Cc3cccc(C(=O)O)c3)NC(=O)[C@H](CC(=O)O)NC1=O)NC(=O)[C@H](C1CCCCC1)NC(=O)[C@H](CC(=O)O)NC2=O (single isomer, unassigned) [I-253, Ac-PL3-Asp-Chg-B5-Asp-3COOHF-Aib-Ala-Phe-Lys*3-PyrS2-3Thi-BztA-GlnR*3-Ala-NH2]
12 | < 50 nM |  | 3 to 10 µM | CC(=O)N1CCC[C@]12CC=CCCCC1(CCCC=CCCCOC(=O)N3CC[C@@]4(C3)NC(=O)[C@H](CCCCNC(=O)CC[C@@H](C(=O)N[C@@H](C)C(N)=O)NC(=O)[C@H](Cc3csc5ccccc35)NC(=O)[C@H](Cc3ccsc3)NC4=O)NC(=O)[C@H](Cc3ccccc3)NC(=O)[C@H](C)NC(=O)C(C)(C)NC(=O)[C@H](Cc3cccc(C(=O)O)c3)NC(=O)[C@H](CC(=O)O)NC1=O)NC(=O)[C@H](CC1CCCCC1)NC(=O)[C@H](CC(=O)O)NC2=O (relative stereo) [I-250, Ac-PL3-Asp-Cha-B5-Asp-3COOHF-Aib-Ala-Phe-Lys*3-PyrS2-3Thi-BztA-GlnR*3-Ala-NH2]
13 | < 50 nM | 1.5 to 3 µM |  | CC(=O)N1CCC[C@]12CC=CCCCC1(CCCC=CCCCOC(=O)N3CC[C@@]4(C3)NC(=O)[C@H](CCCCNC(=O)CC[C@@H](C(=O)N[C@@H](C)C(N)=O)NC(=O)[C@H](Cc3ccc(Cl)c(Cl)c3)NC(=O)[C@H](Cc3ccccc3)NC4=O)NC(=O)[C@H](Cc3ccsc3)NC(=O)[C@H](C)NC(=O)C(C)(C)NC(=O)[C@H](Cc3cccc(C(=O)O)c3)NC(=O)[C@H](CC(=O)O)NC1=O)NC(=O)[C@H](CC(C)(C)C)NC(=O)[C@H](CC(=O)O)NC2=O (relative stereo) [I-478, Ac-PL3-Asp-Npg-B5-Asp-3COOHF-Aib-Ala-3Thi-Lys*3-PyrS2-Phe-34ClF-GlnR*3-Ala-NH2]
14 | < 50 nM | > 10 µM |  | CC(=O)N1CCC[C@]12CC=CCCCC1(CCCC=CCCCOC(=O)N3CC[C@@]4(C3)NC(=O)[C@H](CCCCNC(=O)CC[C@@H](C(=O)N[C@@H](C)C(N)=O)NC(=O)[C@H](Cc3csc5ccccc35)NC(=O)[C@H](Cc3ccsc3)NC4=O)NC(=O)[C@H](Cc3ccccc3)NC(=O)[C@H](C(C)C)NC(=O)C(C)(C)NC(=O)[C@H](Cc3cccc(C(=O)O)c3)NC(=O)[C@H](CC(=O)O)NC1=O)NC(=O)[C@H](CC(C)(C)C)NC(=O)[C@H](CC(=O)O)NC2=O (single isomer, unassigned) [I-447, Ac-PL3-Asp-Npg-B5-Asp-3COOHF-Aib-Val-Phe-Lys*3-PyrS2-3Thi-BztA-GlnR*3-Ala-NH2]

Reference: patent US20240360179A1, “STAPLED PEPTIDES AND METHODS THEREOF” (FOG PHARMACEUTICALS, INC., priority 2021, published 2024)
